Laboratory results taken from patent US9138659B2, “Compositions, methods, and systems relating to controlled crystallization and/or nucleation of molecular species” (Massachusetts Institute of Technology, priority 2010, dated 2015).

Experiments:
[1] = CBZ nucleation induction time and polymorphic outcome with PEGMDA microgels in ethanol; format: physicochemical
From the text: Results and Discussion: Monodispersed cubelike PEGMDA microgels (FIG. 27 left), with M ranging from 130 to 700 g/mol were synthesized by Stop-Flow Lithography, The mesh sizes vary from 0.7 to 1.5 nm in solvent ethanol (Table 9), estimated from equilibrium swelling by the Flory-Rehner theory. The accuracy of this method for obtaining mesh sizes has been confirmed with Small-Angle Neutron Scattering in a different solvent. The microgels were utilized for controlling polymorph crystallization by suspending ˜10 μg of microgels per 1 ml solution by stiffing. Such a low microgel concentration may be sufficient to effect drastic change in the crystallization behavior (discussed later), underscoring the effectiveness of polymer microgels in controlling crystallization. In all crystallization experiments, supersaturation of the solution was generated by cooling instead of solvent evaporation, despite its popularity in numerous polymorph studies, to yield better control over the crystallization process. […]
Accompanying the impact on CBZ polymorphic outcomes is the ability of the microgels in altering the CBZ nucleation kinetics, characterized by the average nucleation induction time τ (Table 9). Induction time was measured by monitoring IR transmission signal passing through a solution in controlled temperature environment and stirring condition. […]

[2] = Partition coefficients of CBZ and ROY in PEGMDA microgels from ethanol solutions; format: physicochemical; settings: PEGMDA gels

NC(=O)N1c2ccccc2C=Cc2ccccc21 [CBZ, carbamazepine]
reduction of CBZ average induction time relative to bulk samples ([1]; microgels of higher M): at least an order of magnitude
shortening of CBZ average induction time relative to bulk samples ([1]; microgels with M=130 and 200 g/mol): 2-3 fold
CBZ concentration in the polymer gel relative to the bulk [2]: 3-4 times
